Assays:
[1] = system: TRAMP-C2, BxPC-3, and 5637 cell lines; test: Cell adhesion assay on conjugate-coated plates; type: cell-based, mouse, human; settings: plates coated with the protein; 2-3 h; crystal violet
Procedure: Cell adhesion assays were carried out as described previously, except that the cells were seeded into 96-well plates with their own cell culture medium containing 3% BSA.
After 2-3 h of incubation, non-adherent cells were removed by washing, and adherent cells were stained with crystal violet and quantified by spectrophotometric analysis using an A570 nm filter (iMark Microplate Absorbance Reader, Bio-Rad). In cases of uneven cell adhesion, microtiter plates were treated with 10% acetic acid (150 µL/well) to dissolve crystal violet, and the absorbance of each well was quantified as described above.

[2] = system: WEHI-164, TS/A, TRAMP-C2, 5M7101/GFP/CEA, and 5637 cancer cells; test: TGFβ bioassay on cancer cell supernatants (HEK-Blue TGFβ cells); type: cell-based, mouse, human; settings: 48–72 h of incubation; supernatant quantified with HEK-Blue TGFβ cells
Procedure: The quantification of bioactive TGFβ in cell supernatants was carried out using TGFβ-Reporter HEK-Blue™ cells (InvivoGen) according to the supplier’s recommendations.
The cells were seeded on cell culture microplates, allowed to adhere for 2 h, and treated with the indicated compounds for 48–72 h. The amount of active TGFβ in the supernatant was quantified using a bioassay based on HEK-Blue™ TGFβ cells (see Methods). The results of one representative experiment per each cell line are shown (mean ± SE, n = 2–4 wells). **, P < 0.01; ****P < 0.0001 by two-tailed t-test

*HSA: sulfo-SMCC-activated HSA, control conjugate lacking peptide 5a (2-mercaptoethanol added)
Adhesion of single- and double-positive cells to coated microtiter plates [1]: but not
Production of active TGFβ by cancer cells [2]: but not

From paper PMC11889887, “Blockade of αvβ6 and αvβ8 integrins with a chromogranin A-derived peptide inhibits TGFβ activation in tumors and suppresses tumor growth” (Journal of Experimental & Clinical Cancer Research : CR, 2025)
